Cneo AK release – Cryptococcus neoformans cell lysis inducers, primary screen, AK release luminescence, single concentration; lysis activity, % at 15 µM; 360,000 compounds, 0.2% hits; C. neoformans lysis, adenylate kinase release luminescence, 4 h; normalised: neutral wells 0, clomiphene wells 100;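 active = mean lysis activity across replicates of at least 80%, whatever share of replicates individually reach that level; inactive = mean lysis activity below 80%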
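Material: C. neoformans cells; Schedule: 4 h static compound exposure, 37 °C, read 1 h post-reagent; Measured by: adenylate kinase release luminescence; Read-out: signal increase indicating cell lysis; Controls: Clomiphene as positive lysis control.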
E-sel inducer – E-selectin induction in HUVECs, primary screen, imaging, HUVEC, immunofluorescence imaging, single point; 260,000 compounds, 0.37% hits; P16581; activation, % at 7.58 µM; normalized: neutral wells 0, TNF-alpha wells 100;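 active = mean E-selectin-positive cell signal at least 10% of the positive control, reached in at least 60% of replicates, without over 20% cell loss; inconclusive = no rule given, readout overlaps actives, possibly toxicity-flagged; inactive = the rest, including those meeting only one limit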
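Assay system: HUVEC, human umbilical vein endothelial cells / Amount: 3,000 HUVEC/well / Controls: TNF-alpha positive control, DMSO neutral control / Compound dosing: single concentration / Medium: EGM-2 over gelatin coat / Evaluation: percent E-selectin-positive cells / Signal: immunofluorescence imaging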
DENV2 CPE – inhibitors of DENV2 cytopathic effect, primary screen, cell-based, plate reader, single concentration; AID 651640, 2012; DENV2-infected cells, cytopathic effect rescue; CPE inhibition, % at 9.99 µM; 350,000 compounds, 1.7% hits; in the data active = CPE inhibition above about 20%, passing the limit was not always enough; inconclusive = no clear call, values can overlap the other calls; tested in BHK-21 cells;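 note: 0% = median of neutral control wells and 100% = median of positive control wells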
Yeast UUG start – modulators of start codon recognition fidelity in yeast; AID 602363; hit rate 0.13% among 350,000; activity score, % at 18.7 µM; S. cerevisiae UUG-firefly luciferase reporter, luminescence/redox ratio;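 active = replicate mean at a twofold rise or more, about +100% in these data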;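 note: firefly luciferase made from a UUG start codon reports start codon fidelity; reporter light over untreated wells divided by growth signal over untreated wells; some hits fall short of that in this replicate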
Active calls of the source: *; ? = inconclusive; . = no result given. Compounds with a hit are over-represented: about 1.8% of the library has one in this group of screens.

Molecule	Cneo AK release	E-sel inducer	DENV2 CPE	Yeast UUG start
C[C@H](CO)N1C[C@H](C)[C@H](CN(C)C(=O)Nc2cccc3ccccc23)Oc2ccc(NC(=O)Nc3cccc4ccccc34)cc2CC1=O	-2	1	-5	-15
C[C@H]1CN([C@@H](C)CO)C(=O)Cc2cc(NC(=O)C3CC3)ccc2O[C@@H]1CN(C)C(=O)Nc1cccc2ccccc12	111*	0	12	18
C[C@@H]1CN([C@@H](C)CO)C(=O)Cc2cc(NC(=O)Nc3cccc4ccccc34)ccc2O[C@H]1CN(C)C(=O)Nc1cccc2ccccc12	.	1	45*	.
C[C@H](CO)N1C[C@H](C)[C@@H](CN(C)C(=O)Nc2ccccc2)Oc2ccc(NC(=O)Cc3cn(C)c4ccccc34)cc2CC1=O	-4	0	12	-5
C[C@H]1CN([C@@H](C)CO)C(=O)Cc2cc(NC(=O)Cc3cn(C)c4ccccc34)ccc2O[C@@H]1CN(C)C(=O)Nc1cccc2ccccc12	-3	0	21*	-10
Cc1noc(C)c1NC(=O)Nc1ccc2c(c1)CC(=O)N([C@H](C)CO)C[C@H](C)[C@H](CN(C)C(=O)Nc1cccc3ccccc13)O2	-6	0	63*	0
COc1ccc(S(=O)(=O)Nc2ccc3c(c2)C(=O)N([C@H](C)CO)C[C@H](C)[C@@H](CN(C)C(=O)NC(C)C)OCCCC[C@@H](C)O3)cc1	-2	-1	-7	-17
C[C@@H]1CN([C@H](C)CO)C(=O)Cc2cc(NC(=O)Nc3cccc4ccccc34)ccc2O[C@@H]1CN(C)C(=O)Nc1ccc(C(F)(F)F)cc1	-2	1	?	-1
C[C@H]1CN([C@@H](C)CO)C(=O)Cc2cc(NC(=O)Nc3cccc4ccccc34)ccc2O[C@@H]1CN(C)C(=O)Nc1ccc(C(F)(F)F)cc1	-3	55*	0	3
Cc1ccc2nc(-c3ccc(C#N)cc3)c(Cc3ccccc3C(F)(F)F)n2c1	-1	0	63*	-11
N#Cc1ccc(-c2nc3ccc(Br)cn3c2Cc2ccccc2C(F)(F)F)cc1	0	0	5	-12
Cn1c(C(=O)N/N=C/c2ccccc2)cc2ccccc21	-3	.	88*	-5
Cn1c(N)c(C(=O)N/N=C/c2ccccc2)sc1=S	10	1	-6	-14
C[C@@H]1CN([C@@H](C)CO)S(=O)(=O)c2ccc(-c3ccccc3)cc2O[C@H]1CN(C)C(=O)C1CC1	.	0	.	-6
COc1cc(OC)c(-c2sc(Nc3ccccc3)n[n+]2-c2ccc(F)cc2)cc1OC	0	.	-1	-12
COc1ccc(-c2sc(Nc3ccccc3)n[n+]2-c2ccc(F)cc2)c(OC)c1OC	0	.	136*	-4
C[C@@H]1CN([C@H](C)CO)C(=O)c2cccc(NC(=O)CCCCCC(=O)Nc3ccccc3N)c2O[C@H]1CN(C)C	.	?	1	.
C[C@@H]1CN([C@@H](C)CO)C(=O)c2cc(NC(=O)NC3CCCCC3)ccc2O[C@@H]1CN(C)C(=O)Nc1ccc2c(c1)OCO2	-2	0	0	0
O=C(c1ccccc1Cc1ccccc1)N1CCN(S(=O)(=O)c2ccccc2F)CC1	-1	1	10	-13
O=C(c1ccccc1Cc1ccccc1)N1CCN(S(=O)(=O)c2ccccc2)CC1	-1	0	68*	-16
CO[C@H]1CN(C)C(=O)c2ccc(NC(C)=O)cc2OC[C@@H](C)N(C(=O)Cc2ccccn2)C[C@@H]1C	-5	0	3	.
CC1CCCN(CCCOc2ccc(Br)cc2Cl)C1 (stereo not given)	.	0	34*	.
CN(C1CCCC1)C1CCN(C(=O)CNC(=O)/C=C/c2cccc(C(F)(F)F)c2)CC1	2	39*	-16	-12
CC(C)(C)NC(=O)c1cccc(NC(=O)c2ccc3c(c2)C(=O)N(C(C)(C)C)C3=O)c1	-4	1	44*	-5
COC(=O)c1cccc(NC(=O)c2ccc3c(c2)C(=O)N(C(C)(C)C)C3=O)c1	-8	.	?	-8
CC(C)(C)N1C(=O)c2ccc(C(=O)Nc3ccc(O)cc3)cc2C1=O	-6	.	54*	-10
CC(C)(C)N1C(=O)c2ccc(C(=O)O)cc2C1=O	-18	.	.	-19
COc1ccc2c3c([nH]c2c1)[C@@H](CO)N(CC1CCOCC1)CC31CN(C(=O)C2CCOCC2)C1	.	0	-4	.

Some of these compounds in order of length of the SMILES, descending.
Molecule	Cneo AK release	E-sel inducer	DENV2 CPE	Yeast UUG start
Cc1noc(C)c1NC(=O)Nc1ccc2c(c1)CC(=O)N([C@H](C)CO)C[C@H](C)[C@H](CN(C)C(=O)Nc1cccc3ccccc13)O2	-6	0	63*	0
C[C@@H]1CN([C@@H](C)CO)C(=O)c2cc(NC(=O)NC3CCCCC3)ccc2O[C@@H]1CN(C)C(=O)Nc1ccc2c(c1)OCO2	-2	0	0	0
CC(C)(C)N1C(=O)c2ccc(C(=O)O)cc2C1=O	-18	.	.	-19
